Laboratory results reported in BindingDB's records for 28684009.

Each molecule was assayed against Acetylcholinesterase (Homo sapiens, UniProt P22303).
Molecule `COc1cc2c(cc1OC)CN(CC1CCN(Cc3cc(Cl)cc(/C=N/O)c3O)CC1)CC2` has a pKd of 3.58.
In the case of `COc1cc(/C=N/O)c(O)c(CN2CCC(CN3CCc4cc(OC)c(OC)cc4C3)CC2)c1`, the pKd was 3.29.
`COc1cc2c(cc1OC)CN(CC1CCN(Cc3cc(F)cc(/C=N/O)c3O)CC1)CC2` showed a pKd of 3.57.
Molecule `COc1cc2c(cc1OC)CN(CC1CCN(Cc3cc(Br)cc(/C=N/O)c3O)CC1)CC2` has a pKd of 3.69.

pKd: −log10 of the molar value.
